Measured values from US20220267298A1 (priority 2019, published 2022).

Molecular target: T1, GRK2 (Homo sapiens, UniProt P25098)
T1 sequence (P25098 1-689): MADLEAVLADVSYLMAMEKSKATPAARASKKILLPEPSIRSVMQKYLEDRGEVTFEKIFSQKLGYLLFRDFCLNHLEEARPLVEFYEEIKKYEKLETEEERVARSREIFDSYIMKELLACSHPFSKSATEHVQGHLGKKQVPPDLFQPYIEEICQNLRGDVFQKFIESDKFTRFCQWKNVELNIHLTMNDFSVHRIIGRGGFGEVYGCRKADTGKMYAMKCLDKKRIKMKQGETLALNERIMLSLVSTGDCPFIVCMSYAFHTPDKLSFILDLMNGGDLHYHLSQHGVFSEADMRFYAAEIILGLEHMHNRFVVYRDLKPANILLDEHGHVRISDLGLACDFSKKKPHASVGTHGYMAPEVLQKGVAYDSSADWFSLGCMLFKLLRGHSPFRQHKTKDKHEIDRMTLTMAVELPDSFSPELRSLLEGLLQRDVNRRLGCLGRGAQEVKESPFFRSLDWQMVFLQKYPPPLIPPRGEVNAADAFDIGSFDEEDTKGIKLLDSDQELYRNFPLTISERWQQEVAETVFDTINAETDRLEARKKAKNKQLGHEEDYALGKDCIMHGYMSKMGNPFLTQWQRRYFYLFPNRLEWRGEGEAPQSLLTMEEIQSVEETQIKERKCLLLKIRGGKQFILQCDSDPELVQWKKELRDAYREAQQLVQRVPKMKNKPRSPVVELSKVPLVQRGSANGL
Conditions: read-out: GRK2 IC50; 10 nM GRK2; 10 uM ATP

SMILES	IC50
COc1cc(Cn2cnc3ccc(-c4cn[nH]c4)cc3c2=O)ccc1F [Compound 62, 3-[(4-Fluoro-3-methoxy-phenyl)methyl]-6-(1H-pyrazol-4-yl)quinazolin-4-one]	18 nM
O=c1c2cc(-c3cn[nH]c3)c(F)cc2ncn1Cc1ccccc1 [Compound 69, 3-benzyl-7-fluoro-6-(1H-pyrazol-4-yl)quinazolin-4(3H)-one]	278 nM
